Experimental data published in PubChem BioAssay AID526 (National Center for Advancing Translational Sciences (NCATS), 2006).
The other results are listed elsewhere or left out. Active and inactive are the calls of the source. The call rests on the fitted dose curve; in most records, active means well fitted activation curve with a large enough effect (not every such curve was filed as active); inconclusive means small, poorly fitted or top-dose-only effect, or another doubt; inactive means no such curve, though single readings can be large or run the other way.

Test: Ubiquitin-GFP Assay
Conditions: Ubiquitin-GFP reporter cells, proteasome inhibition, GFP fluorescence, untreated = 0%, 10 µM MG-132 = 100%; at 45.9 µM (top of the series) unless noted
Excerpt: NIH Chemical Genomics Center [NCGC]
NIH Molecular Libraries Screening Centers Network [MLSCN]
The ubiquitin-proteasome pathway is present within all eukaryotic cells and plays roles in normal cellular functions and disease-related dysfunction. Proteins are tagged with a poly-ubiquitin chain that targets them for the proteasome, a multimeric protease, that degrades the protein into peptides and free ubiquitin. The proteasome has a key role in regulating cell cycle and growth and is known to control the levels of cyclins and CDK inhibitors as well as tumor suppressor proteins. Additionally, the activation of NF- B is controlled by ubiquitin-labeling and degradation of the inhibitory protein I B . […] With this in mind, proteasome inhibitors such as MG-132 and PS-341 have been used to inhibit tumor cell growth.
A cellular assay for ubiquitin-proteasome function was used to find chemical probes of this pathway. The assay used an ubiquitin-GFP construct expressed in U2OS cells (BioImage). Under basal conditions little GFP can be detected as it is degraded by the proteasome. However, treatment of the cells with a proteasome inhibitor such as MG-132 results in a rise in GFP levels that can be detected in as little as four hours. We used the Acumen-Explorer laser plate cytometer having a 488 nm laser as an excitation light source to detect the GFP. Compounds were screened in 1536-well plates using qHTS with a concentration-titration series range that varied from 46 uM to 2.9 nM.
NCGC Assay Protocol Summary:
Cells (U20S ps 2042) expressing ubiquitin (G76V-GFP) were maintained in DMEM with Glutamax-1 and high glucose, 10% FBS, 1% (v/v) penicillin-streptomycin, 0.5 mg/mL Geneticin (G418). The cells were seeded in 1536-well plates using a solenoid-based dispenser at 700 cells/5ul in DMEM medium with Glutamax-1 and high glucose containing 0.5% FBS, w/o phenol red, 25 mM HEPES. The plates were incubated at 37 °C/5% CO2 overnight. Then 23 nl of MG-132 in DMSO was added to the control wells at a final concentration of 10 uM. Next, 23 nL of library compounds in DMSO were added to the sample wells. The plates were incubated for 4 hrs at 37 °C/5% CO2. Following this incubation the plates were read on the Acumen using a cell object definition of 15 to 100 um in width and depth and a window of Total Intensity of between 77,200 and 2,720,000 FLU to enumerate GFP-expressing cells.
The %Activity was determined from the basal and MG-132 treated control wells. %Activity was determined by normalizing to the difference in signal between basal cells (0% Activity) and cells incubated with 10 uM of the proteasome inhibitor MG-132 (100% Activity). Concentration-response curves were fitted to the signals arising from the GFP fluorescence.
Assay Protocol Summary Table
Sequence Parameter Value Description
2. Time O/N 37C incubation
4. Compound 23 nL Libraries (46 uM to 2.9 nM)
5. Time 4 hr 37C incubation
6. Detector Acumen Total Intensity, GFP fluorescence (488 ex/515 em)
Keywords: NIH Roadmap, MLSCN, MLI, MLSMR, BioImage, proteasome, ubiquitin-GFP, qHTS, NCGC

SMILES	activation (GFP accumulation)
Cc1ccc(C)c(NP(C)(=O)Oc2ccccc2)c1 (centres undefined)	inactive: -8.33%
Cc1nc2ccc3ccccc3c2s1.O=[N+]([O-])c1cc([N+](=O)[O-])c(O)c([N+](=O)[O-])c1	inactive: 8.51%
CP(=O)(NC(=O)Nc1ccccc1)Oc1ccccc1 (centres undefined)	inactive: 0.862%
CCOP(C)(=S)SCC(=O)NC(C)C(=O)O (centres undefined)	inactive: -6.25%
N1=C(c2nnc(-c3nn[nH]n3)nn2)NNN1	inactive: -1.45% [at 9.17 µM]
Cc1ccc(NP(C)(=O)Oc2ccccc2)c(C)c1 (centres undefined)	inactive: 15.4%
COc1ccccc1OP(C)(=O)Nc1ccc(C)cc1 (centres undefined)	inactive: -0.811%
CP(=O)(Nc1ccccn1)Oc1ccccc1 (centres undefined)	inactive: 6.83%
COc1ccccc1OP(C)(=O)Nc1ccc(C)c(C)c1 (centres undefined)	inactive: -0.575%
Cc1nc2ccc3ccccc3c2o1.O=[N+]([O-])c1cc([N+](=O)[O-])c(O)c([N+](=O)[O-])c1	inactive: 1.16%
C/C1=C2N=C(/C=C3N=C(/C(C)=C4\[N-][C@@](C)([C@H]5N=C1[C@@](C)(CCC(=O)NC[C@H](C)OP(=O)([O-])O[C@@H]1[C@H](O)[C@H](n6cnc7cc(C)c(C)cc76)O[C@@H]1CO)[C@@H]5CC(N)=O)[C@](C)(CC(N)=O)[C@H]4CCC(N)=O)[C@@](C)(CC(N)=O)[C@@H]\3CCC(N)=O)C(C)(C)[C@@H]/2CCC(N)=O.[C-]#N.[Co+3]	inactive: -7.53% [at 20.5 µM]
N#[O+].[C-]#N.[C-]#N.[C-]#N.[C-]#N.[C-]#N.[Fe+2].[Na+].[Na+]	inactive: 1.69%
CP(=O)(Oc1ccccc1)N1CCOC1=O (centres undefined)	inactive: 11%
COc1ccccc1OP(C)(=O)Nc1c(C)n(C)n(-c2ccccc2)c1=O (centres undefined)	inactive: 0%
CCOP(C)(=S)SCC(=O)NC(C)(CC)C(=O)O (centres undefined)	inactive: -4.5%
CP(=O)(Nc1ccc2c(c1)OCCO2)Oc1ccccc1 (centres undefined)	inactive: -0.0621%
NNC(NN)NN.n1nc(-c2nn[nH]n2)n[nH]1	inactive: -7.03% [at 9.17 µM]
CN(C)CCOC(=O)C(O)(c1ccccc1)C1CCCCC1 (centres undefined)	inactive: -2.56%
CP(=O)(Nc1ccccc1F)Oc1ccccc1 (centres undefined)	inactive: 0.64%
